Values of other authors as cited in patent US20150272967A1, “EXTREMELY HIGH LOADING DOSE” (priority 2013, published 2015).

Conditions: higher doses associated with increased risk of hypercalciuria, hypercalcemia

Substance: Vitamin D
- Tolerable Upper Intake Level (UL): 100 mcg per day
